Results: patent US12139488B2, “Pyrido[3,2-d]pyrimidine compounds uses thereof for treating a proliferative disease” (Universite de Montreal, priority 2021, dated 2024)

By UniProt entry, the sequences of proteins in these tests, tags left out.
UniProt P04049, whole entry: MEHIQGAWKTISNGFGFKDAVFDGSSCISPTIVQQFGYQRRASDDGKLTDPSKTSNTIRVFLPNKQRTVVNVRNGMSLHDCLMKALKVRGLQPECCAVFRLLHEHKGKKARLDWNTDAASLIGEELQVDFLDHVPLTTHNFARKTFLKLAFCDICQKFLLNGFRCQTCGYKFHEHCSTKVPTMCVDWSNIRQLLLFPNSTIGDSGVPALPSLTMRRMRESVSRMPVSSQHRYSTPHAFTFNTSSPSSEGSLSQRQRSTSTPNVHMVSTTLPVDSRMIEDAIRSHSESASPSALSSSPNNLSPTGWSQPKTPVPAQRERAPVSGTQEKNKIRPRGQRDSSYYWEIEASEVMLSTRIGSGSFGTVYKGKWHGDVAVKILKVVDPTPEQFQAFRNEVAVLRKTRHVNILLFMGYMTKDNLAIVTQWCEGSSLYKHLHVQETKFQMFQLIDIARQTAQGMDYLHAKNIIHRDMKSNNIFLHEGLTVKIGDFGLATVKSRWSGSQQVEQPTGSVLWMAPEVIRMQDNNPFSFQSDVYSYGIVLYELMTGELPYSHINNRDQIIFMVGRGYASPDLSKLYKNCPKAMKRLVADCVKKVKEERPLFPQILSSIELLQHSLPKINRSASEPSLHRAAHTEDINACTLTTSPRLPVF
UniProt P15056, whole entry: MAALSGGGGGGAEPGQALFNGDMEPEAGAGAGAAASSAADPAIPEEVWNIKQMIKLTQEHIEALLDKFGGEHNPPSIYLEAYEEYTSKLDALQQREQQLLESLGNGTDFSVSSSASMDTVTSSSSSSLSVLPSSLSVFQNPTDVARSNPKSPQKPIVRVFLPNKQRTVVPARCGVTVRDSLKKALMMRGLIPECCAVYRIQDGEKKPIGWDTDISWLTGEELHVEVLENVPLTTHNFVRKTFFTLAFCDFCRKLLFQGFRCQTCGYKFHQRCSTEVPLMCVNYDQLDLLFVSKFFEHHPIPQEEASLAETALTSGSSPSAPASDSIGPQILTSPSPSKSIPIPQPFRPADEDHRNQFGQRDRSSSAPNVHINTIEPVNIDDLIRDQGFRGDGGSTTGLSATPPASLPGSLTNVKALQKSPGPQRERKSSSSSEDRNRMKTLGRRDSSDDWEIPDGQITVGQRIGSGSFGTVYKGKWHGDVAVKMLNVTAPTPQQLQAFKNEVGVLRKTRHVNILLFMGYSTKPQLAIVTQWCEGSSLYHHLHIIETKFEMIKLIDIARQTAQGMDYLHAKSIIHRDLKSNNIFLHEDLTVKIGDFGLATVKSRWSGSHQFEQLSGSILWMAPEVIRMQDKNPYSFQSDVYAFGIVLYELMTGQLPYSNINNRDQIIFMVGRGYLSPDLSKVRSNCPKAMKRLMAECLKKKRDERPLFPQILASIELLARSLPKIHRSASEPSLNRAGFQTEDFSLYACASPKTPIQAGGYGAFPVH

Assays:
[1] = system: pERK in HCT-116 cells (KRAS G13D); experiment: Phospho-ERK inhibition (AlphaLISA SureFire Ultra p-ERK 1/2), HCT116; conditions: for HCT116 pERK Ymin % / IC50 / HCT116 pERK % Ymin (lowest value of the IC50 curve): HCT116 cells; for HCT116 pERK Ymin %: Ymin in brackets; for YMIN of pERK IC50 dose response curve (paradoxical induction of pERK signaling): RAS-mutant HCT116 cells, FIG. 1; for IC50: read-out: HCT116 pERK IC50; for HCT116 pERK % Ymin (lowest value of the IC50 curve): Ymin above −20% = minimal or no paradoxical activation
Summary of the method: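 Cells in RPMI-1640 with 5% FBS were plated overnight, then exposed for 1 h to ten-point dilutions (typically 10 μM to 0.33 nM; 0.5% DMSO). Lysates were read by AlphaLISA SureFire Ultra for p-ERK1/2 Thr202/Tyr204; % inhibition used trametinib background and DMSO controls, with IC50 from four-parameter fits.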

CRAF = CRAF (Homo sapiens, UniProt P04049); experiment: CRAF kinase activity assay (ADP-Glo)
BRAF = BRAF (Homo sapiens (Human), UniProt P15056); experiment: BRAF kinase activity assay (ADP-Glo)
[2] = class symbol before the bracket
[3] = read-out: Kinase IC50 (nM) CRAF
[4] = read-out: Kinase IC50 (nM) BRAF
[5] = read-out: Kinase IC50 (nM), CRAF biochemical kinase assay, CRAF
[6] = read-out: Kinase IC50 (nM), BRAF biochemical kinase assay, BRAF
[7] = class symbol before the bracket, tested form: formic acid salt
[8] = read-out: Kinase IC50 (nM) CRAF, tested form: formic acid salt
[9] = read-out: Kinase IC50 (nM) BRAF, tested form: formic acid salt

IC50 [1, 2] [µM] | IC50 (CRAF; [3]) [nM] | IC50 (BRAF; [4]) [nM] | HCT116 pERK % Ymin (lowest value of the IC50 curve) [1] [%] | IC50 [1] [µM] | IC50 (CRAF; [5]) [nM] | IC50 (BRAF; [6]) [nM] | SMILES | HCT116 pERK Ymin % [1] [%] | further results
< 0.5 | 10 to 50 | < 1 |  |  |  |  | O=C(c1nn(-c2ccc3ncnc(Nc4c(F)ccc(NS(=O)(=O)c5cccc(Cl)c5Cl)c4F)c3n2)c2ccccc12)N1CCOCC1 | 5.2 | YMIN of pERK IC50 dose response curve (paradoxical induction of pERK signaling) [1]: > −20%
 |  |  | 4 | < 0.5 | 10 to 50 | 1 to 10 | CCC1(O)CCN(c2cccc3c2ncn3-c2ccc3ncnc(Nc4c(F)ccc(NS(=O)(=O)c5ccc(OC)c(Cl)c5C)c4F)c3n2)CC1 |  | 
 |  |  | 12 | < 0.5 | < 10 | < 1 | CN1CCN(c2cccc3c2ncn3-c2ccc3ncnc(Nc4c(F)ccc(NS(=O)(=O)c5cccc(Cl)c5Cl)c4F)c3n2)CC1=O |  | 
 |  |  | −10 | 0.5 to 1 | > 50 | 1 to 10 | O=S(=O)(Nc1ccc(F)c(Nc2ncnc3ccc(-n4cnc5c(N6C7CCC6CC(O)C7)cccc54)nc23)c1F)c1cccc(Cl)c1Cl (centres unmarked) |  | 
 |  |  |  |  |  |  | Cc1c(Cl)cccc1S(=O)(=O)Nc1ccc(F)c(Nc2ncnc3ccc(-n4cc(C(=O)N5CCCNCC5)c5ccccc54)nc23)c1F |  | HCT116 pERK Ymin % ([1]; tested form: formic acid salt): −2%; IC50 [1, 7]: 1 to 10 µM; IC50 (CRAF; [8]): 10 to 50 nM; IC50 (BRAF; [9]): < 1 nM
 |  |  | −19 | < 0.5 | < 10 | 1 to 10 | O=S(=O)(Nc1ccc(F)c(Nc2ncnc3ccc(-n4cnc5c(N6CC[C@@H](O)C6)cccc54)nc23)c1F)c1cccc(Cl)c1Cl |  | 
 |  |  | 2 | < 0.5 | < 10 | < 1 | COCCOCCOc1cccc2c1nnn2-c1ccc2ncnc(Nc3c(F)ccc(NS(=O)(=O)c4cccc(Cl)c4Cl)c3F)c2n1 |  | 
1 to 10 | > 50 | 1 to 10 |  |  |  |  | O=S(=O)(Nc1ccc(F)c(Nc2ncnc3ccc(-n4cnc5c(CN6CCO[C@H](CO)C6)cccc54)nc23)c1F)c1ccccc1Cl | −8 | 
 |  |  | −10 | 1 to 10 | < 10 | < 1 | CC1(N)CCN(c2cccc3c2ncn3-c2ccc3ncnc(Nc4c(F)ccc(NS(=O)(=O)c5cccc(Cl)c5Cl)c4F)c3n2)CC1 |  | 
< 0.5 | < 10 | < 1 |  |  |  |  | Cc1c(F)cccc1S(=O)(=O)Nc1ccc(F)c(Nc2ncnc3ccc(-n4ncc5c(-c6cncnc6)cccc54)nc23)c1F | −0.1 | 
 |  |  | −14 | 0.5 to 1 | > 50 | > 10 | CC1COCC(C)N1c1cccc2c1nnn2-c1ccc2ncnc(Nc3c(F)ccc(NS(=O)(=O)c4cccc(Cl)c4Cl)c3F)c2n1 (centres unmarked) |  | 
 |  |  |  |  |  |  | Cc1c(Cl)cccc1S(=O)(=O)Nc1ccc(F)c(Nc2ncnc3ccc(-n4cc(C(=O)N(C)CCN(C)C)c5c(N)cccc54)nc23)c1F |  | HCT116 pERK Ymin % ([1]; tested form: formate): 7.9%; IC50 ([1]; class symbol before the bracket, tested form: formate): < 0.5 µM; IC50 (CRAF; read-out: Kinase IC50 (nM) CRAF, tested form: formate): > 50 nM; IC50 (BRAF; read-out: Kinase IC50 (nM) BRAF, tested form: formate): < 1 nM
 |  |  | −10 | < 0.5 | 10 to 50 | > 10 | CO[C@@H]1CCN(c2cccc3c2ncn3-c2ccc3ncnc(Nc4c(F)ccc(NS(=O)(=O)c5cccc(Cl)c5Cl)c4F)c3n2)C1 |  | 
1 to 10 | > 50 | 1 to 10 |  |  |  |  | O=S(=O)(Nc1ccc(F)c(Nc2ncnc3ccc(-n4cnc5c(CN6CCC[C@@H]6CO)cccc54)nc23)c1F)c1ccccc1Cl | −7 | 
 |  |  | −5 | < 0.5 | < 10 | < 1 | O=S(=O)(Nc1ccc(F)c(Nc2ncnc3ccc(-n4cnc5c(N6CC(O)C6)cccc54)nc23)c1F)c1cccc(Cl)c1Cl |  | 
< 0.5 | < 10 | 1 to 10 |  |  |  |  | Cc1c(Cl)cccc1S(=O)(=O)Nc1ccc(F)c(Nc2ncnc3ccc(-n4nnc5ccccc54)nc23)c1F | 3.7 | 
 |  |  | −8 | < 0.5 | 10 to 50 | > 10 | COc1ccc(S(=O)(=O)Nc2ccc(F)c(Nc3ncnc4ccc(-n5cnc6c(N7CCC(O)(C(F)(F)F)CC7)cccc65)nc34)c2F)c(C)c1F |  | 
< 0.5 | > 50 | 1 to 10 |  |  |  |  | Cc1c(Cl)cccc1S(=O)(=O)Nc1ccc(F)c(Nc2ncnc3ccc(-n4cc(C(=O)N5CCCCC5CCO)c5ccccc54)nc23)c1F (centres unmarked) | 0.4 | 
 |  |  |  |  |  |  | Cc1c(Cl)cccc1S(=O)(=O)Nc1ccc(F)c(Nc2ncnc3ccc(-n4cc(C(=O)N5CC[C@@H](N)C5)c5ccccc54)nc23)c1F |  | HCT116 pERK Ymin % ([1]; tested form: formic acid salt): 3%; IC50 [1, 7]: 1 to 10 µM; IC50 (CRAF; [8]): 10 to 50 nM; IC50 (BRAF; [9]): < 1 nM
1 to 10 | 10 to 50 | < 1 |  |  |  |  | Cc1c(Cl)cccc1S(=O)(=O)Nc1ccc(F)c(Nc2ncnc3ccc(-n4cc(C(=O)N5CCN(C)CC5)nc4C)nc23)c1F | 0.9 | 
< 0.5 | 10 to 50 | < 1 |  |  |  |  | CN1CCN(C(=O)c2cn(-c3ccc4ncnc(Nc5c(F)ccc(NS(=O)(=O)c6ccccc6Cl)c5F)c4n3)c3ccccc23)CC1 | −10 | YMIN of pERK IC50 dose response curve (paradoxical induction of pERK signaling) [1]: > −20%
0.5 to 1 | > 50 | 1 to 10 |  |  |  |  | Cc1cn(-c2ccc3ncnc(Nc4c(F)ccc(NS(=O)(=O)c5cccc(Cl)c5C)c4F)c3n2)nc1C(=O)N1CCN(C)CC1 | −5.6 | 
 |  |  | −10 | < 0.5 | < 10 | 1 to 10 | CS(=O)(=O)N1CCN(c2cccc3c2ncn3-c2ccc3ncnc(Nc4c(F)ccc(NS(=O)(=O)c5cccc(Cl)c5Cl)c4F)c3n2)CC1 |  | 
 |  |  | −9 | < 0.5 | > 50 | > 10 | O=S(=O)(Nc1ccc(F)c(Nc2ncnc3ccc(-n4nnc5c(N6CCC7(CCOC7)CC6)cccc54)nc23)c1F)c1cccc(Cl)c1Cl |  | 
< 0.5 | > 50 | 1 to 10 |  |  |  |  | Cc1c(F)cccc1S(=O)(=O)Nc1ccc(F)c(Nc2ncnc3ccc(-n4nc(C(=O)N5C6CCC5COC6)c5ccccc54)nc23)c1F | −9.6 | 
 |  |  | −3 | < 0.5 | > 50 | > 10 | COC[C@@H]1CCCN1c1cccc2c1ncn2-c1ccc2ncnc(Nc3c(F)ccc(NS(=O)(=O)c4cccc(Cl)c4Cl)c3F)c2n1 |  | 

SMILES | IC50 [1, 2] [µM] | IC50 (CRAF; [3]) [nM] | IC50 (BRAF; [4]) [nM] | HCT116 pERK % Ymin (lowest value of the IC50 curve) [1] [%] | IC50 [1] [µM] | IC50 (CRAF; [5]) [nM] | IC50 (BRAF; [6]) [nM] | HCT116 pERK Ymin % [1] [%] | further results
Nc1nnc(-c2nn(-c3ccc4ncnc(Nc5c(F)ccc(NS(=O)(=O)c6cccc(Cl)c6Cl)c5F)c4n3)c3ccccc23)o1 | 1 to 10 | < 10 | < 1 |  |  |  |  | −2 | 

Read-outs that look alike come from different tables or passages of the source.
